Values of other authors, collected in US20190144909A1, “METHODS OF MODULATING BCKDH” (NESTEC S.A., priority 2016, published 2019).

Test system: branched-chain alpha-keto acid dehydrogenase kinase (BCKDH kinase)

## O=S(=O)([O-])[O-].[Cu+2] [Copper Sulfate]
  Interaction Actions: decreases expression
